Source: patent US7968601B2, “Adamantyl acetamides as 11-β hydroxysteroid dehydrogenase inhibitors” (Janssen Pharmaceutica N.V., priority 2002, dated 2011)

Chains of the proteins cited; added tags and fusions are not shown.
UniProt P28845, whole entry: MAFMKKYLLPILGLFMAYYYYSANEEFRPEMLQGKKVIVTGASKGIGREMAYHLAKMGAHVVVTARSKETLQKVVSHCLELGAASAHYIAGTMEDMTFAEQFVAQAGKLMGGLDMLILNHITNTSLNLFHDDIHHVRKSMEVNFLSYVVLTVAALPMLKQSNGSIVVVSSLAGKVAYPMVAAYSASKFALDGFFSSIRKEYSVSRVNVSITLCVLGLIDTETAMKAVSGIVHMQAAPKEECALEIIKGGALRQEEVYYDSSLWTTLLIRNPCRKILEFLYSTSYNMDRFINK
UniProt P80365, whole entry: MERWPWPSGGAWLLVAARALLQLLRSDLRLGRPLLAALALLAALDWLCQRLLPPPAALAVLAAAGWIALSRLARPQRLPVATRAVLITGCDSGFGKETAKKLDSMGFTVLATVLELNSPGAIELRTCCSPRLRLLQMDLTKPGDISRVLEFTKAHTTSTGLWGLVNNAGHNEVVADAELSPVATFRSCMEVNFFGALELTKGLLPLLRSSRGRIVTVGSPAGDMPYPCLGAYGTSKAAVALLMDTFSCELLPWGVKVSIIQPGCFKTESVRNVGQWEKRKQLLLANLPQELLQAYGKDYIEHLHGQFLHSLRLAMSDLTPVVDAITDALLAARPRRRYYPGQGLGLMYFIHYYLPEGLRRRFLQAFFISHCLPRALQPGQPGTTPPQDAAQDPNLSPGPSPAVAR
UniProt P50172, whole entry: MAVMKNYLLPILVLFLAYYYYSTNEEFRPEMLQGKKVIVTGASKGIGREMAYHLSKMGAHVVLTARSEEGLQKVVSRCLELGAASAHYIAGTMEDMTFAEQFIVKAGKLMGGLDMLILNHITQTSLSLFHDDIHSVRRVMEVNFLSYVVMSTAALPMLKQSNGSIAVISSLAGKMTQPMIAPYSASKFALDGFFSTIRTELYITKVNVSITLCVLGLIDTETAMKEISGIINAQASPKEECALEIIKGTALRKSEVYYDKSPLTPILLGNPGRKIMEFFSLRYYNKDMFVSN

Experiments:
11b-HSD1 [1] = target: 11b-HSD1 (Homo sapiens, UniProt P28845); experiment: Enzymatic assay, 11b-HSD1 reductase activity (conversion of cortisone into cortisol); conditions: pIC50 scored 1-3
11b-HSD2 [2] = target: T1, 11b-HSD2 (Homo sapiens, UniProt P80365); experiment: Enzymatic assay, 11b-HSD2 dependent dehydrogenase activity; conditions: 11b-HSD2 dehydrogenase activity, pIC50 scored 1-3
11b-HSD1 [3] = target: 11b-HSD1 (Mus musculus, UniProt P50172); experiment: Cellular assay, 11b-HSD1 activity in differentiated 3T3-L1 cells; conditions: 4 hour pre-incubation, pIC50 scored 1-3
11b-HSD2 [4] = target: T1, 11b-HSD2; experiment: Cellular assay, 11b-HSD2 activity in HepG2 cells; conditions: 4 hour pre-incubation, pIC50 scored 1-3

Q: `CC(C(=O)NC1C2CC3CC(C2)CC1C3)c1ccc([N+](=O)[O-])cc1` (stereo not shown) was tested. Which “[C1] HSD1-prot Reduct Score” value (11b-HSD1 [1]) did it give?
A: The value was 2 (Score 2=pIC50 value in the range of 5 to 6).

Q: And the “[C1] HSD2 prot Dehydro Score” value (11b-HSD2 [2])?
A: The value was 1 (Score 1=pIC50 value<5).

Q: What about the “[C2] HSD1 cellular 3T3-L1 Score” value (11b-HSD1 [3]) of the same compound?
A: Its value is 2 (Score 2=pIC50 value in the range of 5 to 6).

Q: What about the “[C2] HSD2 cellular HepG2 Score” value (11b-HSD2 [4]) of the same compound?
A: Its value is 1 (Score 1=pIC50 value<5).
